substance,measurement,setting,value
chloro-thioxanthone,UV absorption wavelength,350-400 nm band region,385 nm
same,E1^1 (extinction coefficient of absorption),at the stated absorption wavelength,159

# Reference: patent US10040893B2, “Polymeric photoinitiators and photoinitiator monomers” (Coloplast A/S, priority 2012, dated 2018)
